Molecular target: human capsaicin receptor (VR1) (Homo sapiens, UniProt Q8NER1)
Assay: Capsaicin receptor binding assay ([3H]RTX competition, VR1-transfected HEK293 membranes)
[1] = Table II, determined as described in Example 5

Amino acid sequences for entries named in this document (tags omitted).
UniProt Q8NER1, whole entry: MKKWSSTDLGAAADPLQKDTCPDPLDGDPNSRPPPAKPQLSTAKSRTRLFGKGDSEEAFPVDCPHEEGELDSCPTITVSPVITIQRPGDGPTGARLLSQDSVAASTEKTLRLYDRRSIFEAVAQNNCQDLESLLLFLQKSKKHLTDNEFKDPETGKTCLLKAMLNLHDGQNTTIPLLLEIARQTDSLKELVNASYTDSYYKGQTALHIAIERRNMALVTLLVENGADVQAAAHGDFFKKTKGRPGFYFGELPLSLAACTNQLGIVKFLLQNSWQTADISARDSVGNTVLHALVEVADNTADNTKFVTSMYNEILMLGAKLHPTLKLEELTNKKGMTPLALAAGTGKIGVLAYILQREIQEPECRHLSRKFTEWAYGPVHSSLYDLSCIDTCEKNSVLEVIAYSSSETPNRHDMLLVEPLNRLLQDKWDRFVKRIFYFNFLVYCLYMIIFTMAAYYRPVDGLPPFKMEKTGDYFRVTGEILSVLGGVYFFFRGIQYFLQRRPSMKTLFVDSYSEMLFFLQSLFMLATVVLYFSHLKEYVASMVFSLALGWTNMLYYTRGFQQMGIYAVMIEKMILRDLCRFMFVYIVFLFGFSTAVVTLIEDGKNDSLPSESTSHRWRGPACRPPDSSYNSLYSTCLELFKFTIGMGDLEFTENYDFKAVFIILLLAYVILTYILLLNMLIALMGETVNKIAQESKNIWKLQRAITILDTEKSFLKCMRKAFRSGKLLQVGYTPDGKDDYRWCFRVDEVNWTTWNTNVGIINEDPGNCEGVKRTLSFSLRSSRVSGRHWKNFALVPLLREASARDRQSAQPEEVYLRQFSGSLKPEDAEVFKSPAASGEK

Row | Ki [1] [nM] | Ki (Table III, capsaicin receptor binding) [nM] | Structure (SMILES)
1 | < 1000 | – | C#Cc1ccc(Nc2nc(COCC(C)C)nc3nc(-c4ncccc4Cl)ccc23)cc1
2 | < 1000 | – | CCOC(=O)c1cc2nc(-c3ncccc3C(F)(F)F)ccc2c(Nc2ccc(C(F)(F)F)cc2)n1
3 | – | < 1000 | FC(F)(F)c1ccc(Nc2nc(Cn3ccnc3)nc3cc(-c4ncccc4C(F)(F)F)ccc23)cc1

Reference: patent US20040156869A1, “2-substituted quinazolin-4-ylamine analogues” (Neurogen Corporation, priority 2002, published 2004)
